The values below are quoted from earlier work in patent US20160361270A1, “UNIFORM, HIGH BASIS WEIGHT NANOFIBER FABRICS FOR MEDICAL APPLICATIONS” (University of Washington, priority 2015, published 2016).

Consider maraviroc, for which the pKa was 8.

By pKa is commonly meant the pH at which an ionisable group is half protonated.
